# Reference: patent US20240262904A1 (SHANGHAI MABGEEK BIOTECH, published 2024)
# Legend:
# [1] = target: human TSLP antigen tagged with Flag (hTSLP-Flag) (human) (UniProt Q969D9); test: cell-based or functional assay
# [2] = target: human TSLP antigen tagged with Flag (hTSLP-Flag) (human) (UniProt Q969D9); test: SPR, Biacore T200, antibody captured on Protein A chip, hTSLP-Flag as analyte
# [3] = target: TSLP-flag-Biotin (human) (UniProt Q969D9); test: competition ELISA by the method of Example 5: blocks TSLP-flag-Biotin binding to coated TSLPR-ECD-hFc
substance,measurement,setting,value
reference antibody Tezepelumab,"IC50 of inhibition of TSLP-dependent STAT5 activation (luciferase, IL-7R/TSLPR-BaF3-Luc (STAT5) cells, TSLP-flag stimulus)",[1],0.958 µg/mL and 0.854 µg/mL
same,Kd,[2],0.0131 nM
same,koff,[2],4.36e-05 s⁻¹
same,kon,[2],3.34e+06 M⁻¹ s⁻¹
same,IC50,[3],0.109 µg/mL

# Values joined by “and” are separate entries in the source; they are usually repeats but may differ in a detail not shown here. Equal entries are not always repeated.
